Measured values: US9765058B2, “Substituted benzylpyrazoles” (BAYER PHARMA AKTIENGESELLSCHAFT, priority 2013, dated 2017)

Chains of the proteins cited; added tags and fusions are not shown. Residues count along the entry.
UniProt O43683, 704-1085: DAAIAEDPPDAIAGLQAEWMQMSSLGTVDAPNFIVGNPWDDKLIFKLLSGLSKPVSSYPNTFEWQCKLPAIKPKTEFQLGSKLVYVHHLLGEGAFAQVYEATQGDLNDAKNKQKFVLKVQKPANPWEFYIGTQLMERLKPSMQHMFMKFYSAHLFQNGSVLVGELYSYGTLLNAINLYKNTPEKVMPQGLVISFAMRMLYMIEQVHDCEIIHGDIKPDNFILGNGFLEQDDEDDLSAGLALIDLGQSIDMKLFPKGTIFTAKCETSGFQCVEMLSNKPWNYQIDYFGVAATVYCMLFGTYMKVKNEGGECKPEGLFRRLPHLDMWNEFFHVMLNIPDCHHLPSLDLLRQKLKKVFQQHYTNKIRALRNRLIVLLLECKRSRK

Biological target: catalytic domain of human Bub1 (amino acids 704-1085) (Homo sapiens (Human), UniProt O43683)
Test: Bub1 kinase assay (TR-FRET)
Format: biochemical
Conditions: 10 μM ATP, 1 μM peptide substrate, read-out: Biological Assay 1: Bub1 kinase assay median IC50
Method: The stopped reaction mixture was further incubated 1 h at 22° C. in order to allow the formation of complexes between peptides and detection reagents. Subsequently, the amount of product was evaluated by measurement of the resonance energy transfer from the Eu-chelate-antibody complex recognizing the Phosphoserine residue to the streptavidin-XL665 bound to the biotin moiety of the peptide. […] IC50 values were calculated by fitting the normalized inhibition data to a 4-parameter logistic equation (Minimum, Maximum, IC50, Hill; Y=Max+(Min−Max)/(1+(X/IC50)Hill)).

Question: How did the IC50 turn out when `CCOc1cc(F)c(Cn2cc(Cl)c(-c3ncc(OC)c(Nc4ccncc4C(=O)O)n3)n2)c(F)c1` [Example 2-3-2, 4-({2-[4-chloro-1-(4-ethoxy-2,6-difluorobenzyl)-1H-pyrazol-3-yl]-5-methoxypyrimidin-4-yl}amino)nicotinic acid] was run?
Answer: 18 nM
